The source of these data is US20230348916A1 (RESEARCH FOUNDATION FOR SUNY, published 2023).

Data set [1] concerns the molecule itself. The data set is described as follows: expression in E. coli BL21; 7.5% Native PAGE (self-assembly).
Data set [2] has as its target T1, human ferritin heavy chain (H-subunit) (human, UniProt P02794).
T1 construct: The number of copies per 24-mer varies with inducer concentrations (0 to 24); also called FtH; FTH
The data set is described as follows: co-expression in E. coli Rosetta-gami B; single band on 7.5% Native PAGE.

B1: human ferritin light chain (L-subunit) (other)
chain: MSSQIRQNYSTDVEAAVNSLVNLYLQASYTYLSLGFYFDRDDVALEGVSHFFRELAEEKREGYERLLKMQNQRGGRALFQDIKKPAEDEWGKTPDAMKAAMALEKKLNQALLDLHALGSARTDPHLCDFLETHFLDEEVKLIKKMGDHLTNLHRLGGPEAGLGEYLFERLTLKHD
notes: The number of copies per 24-mer varies with inducer concentrations (0 to 24); also called FtL; FTL
As to B1, the binding result in data set [1] and in data set [2] was “binds” each time.
